## Yeast mating assay 2: variants of the scFv Ab-91

The target is the same throughout: PDVDLGDISGINAS, from the HR2 region of SARS-CoV-2 spike.

Each scFv is VL, three GGGGS repeats, VH, as in the parent Ab-91, and differs from it in the CDRs of the heavy chain only.
VL: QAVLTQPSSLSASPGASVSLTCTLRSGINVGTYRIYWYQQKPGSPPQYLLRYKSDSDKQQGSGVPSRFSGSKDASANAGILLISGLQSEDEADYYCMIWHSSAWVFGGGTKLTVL
VH: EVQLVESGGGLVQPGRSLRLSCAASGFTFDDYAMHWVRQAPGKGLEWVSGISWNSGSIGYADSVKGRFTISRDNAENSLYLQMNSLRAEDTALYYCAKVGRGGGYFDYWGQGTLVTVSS

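The starting antibody came from a phage panning campaign against this peptide. AAYL51 was designed without a model: most single CDR substitutions and a random sample of double and triple ones. Affinity was read by AlphaSeq, a pooled yeast mating assay with surface-displayed partners. After mating in shaken culture at 30 °C for 16 h, diploids were selected and their barcode pairs sequenced. A regression on co-assayed BCL2-family reference pairs converts the normalised counts of each replicate to an apparent Kd. The assay was run in three technical replicates.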

The parent's heavy chain CDRs are GFTFDDYAMH, GISWNSGSIGYADSVK, VGRGGGYFDY; each variant's own CDRs replace them letter for letter.
Every variant below is changed at H35 of the VH (sequential numbering).
Kd is apparent (estimated from mating counts) and averaged on the log scale over replicates with a signal. Smaller is tighter.
"nd" means that the variant was in the library but no mating with the target was seen in any replicate; the authors take this as a sign of poor binding, and no number exists.
Nonspecific signal, from three strains lacking the peptide, appeared in 21% of pairings of library AAYL51, centred on 34 µM (5% of these signals below 1.8 µM); values are not corrected for it.

For GFTFDDYAMG / GISWNSRSIGYAMSVK / VGRGGGYFDY, the assay gave nd (0 of 3 replicates). Variant GFTFDDYAMQ / GISWVSGSIGAADSVK / VGRGGGYFDY showed nd (0 of 3 replicates). Variant GFTMDDYAMW / GISWNSGSGGYADSVK / VGRGGGYFDY showed 22 µM (1 of 3 replicates). Variant GFTFDDYAMW / GISWNSGSIGYADRVK / VGRGGGYFVY gave 140 µM (2 of 3 replicates). For GFTFDDYAMD / GISGNSGSIGYADSVK / VGRGGGYFDY, the assay gave 56 µM (1 of 3 replicates). Variant GFTFDDYAMM / GISWHSGSIGYADSVK / VGRGGGSFDY gave 110 µM (3 of 3 replicates). With GFTFDDYMMW / GISWNSGSIGRADSVK / VGRGGGYFDY the result was nd (0 of 3 replicates). Variant GFTFDDYAMP / GISWNSGSIGYADSVK / IGRGGGYFDT gave 2.6 µM (1 of 3 replicates). For GFTFDDYAGS / GISWNSPSIGYADSVK / VGRGGGYFDY, the assay gave nd (0 of 3 replicates).

For GFEFDDYAMI / GISWNSGSIGYADSVK / VGRGGGYFDS, the assay gave 15 µM (2 of 3 replicates). For GFTFDDYAMI / EISWPSGSIGYADSVK / VGRGGGYFDY, the assay gave nd (0 of 3 replicates). Variant GFTFDDYAMN / GISWNSGNIGYADSVK / VGRGGGYFDY gave nd (0 of 3 replicates). Variant GFTFDDYAME / GISWNSGSIGYVDSVK / NGRGGGYFDY gave 550 nM (1 of 3 replicates). Variant ETTFDDYAMT / GISWNSGSIGYADSVK / VGRGGGYFDY showed 6.9 µM (1 of 3 replicates). Variant GFTFDDYAMR / GGSWNSGSIGYADSVK / VGRGGGYDDY showed nd (0 of 3 replicates). Variant GFTFDDYAMC / GISWNSGEIGYADSVK / VGRGGGYIDY gave 24 µM (1 of 3 replicates). For GFEFDDYAMT / GISWNSGSIGYADSVK / VGRGGGYDDY, the assay gave nd (0 of 3 replicates). Variant GFTFDDYAMF / GISWNSNSIGYADSVK / VGRGGGYFDY gave 96 µM (2 of 3 replicates).

Variant GFTFDDYAMS / GKSWNSGSSGYADSVK / VGRGGGYFDY showed 3.6 µM (1 of 3 replicates). Variant GFTFDDYAMQ / GISWNSGSIIYADSEK / VGRGGGYFDY showed nd (0 of 3 replicates). With GFTFDDYAMF / GISWNSGSIGKADSVK / QGRGGGYFDY the result was 17 µM (2 of 3 replicates). Variant SFTFDDYAMN / GISWNDGSIGYADSVK / VGRGGGYFDY showed nd (0 of 3 replicates). Variant GFTQDDYAMR / GISWNSGSIGYADSVK / VGRGGGYFDY gave nd (0 of 3 replicates). With GFTFDDYAMA / GISWNSGCICYADSVK / VGRGGGYFDY the result was 76 µM (2 of 3 replicates). With GFTFDDYAMG / GISWNSGSIGYEDSVG / VGRGGGYFDY the result was 200 µM (2 of 3 replicates). For AFTFDDYAMK / PISWNSGSIGYADSVK / VGRGGGYFDY, the assay gave 86 µM (2 of 3 replicates). With GFTFDDYAMY / GISWNSRSIGYADSVK / VGRGGGYFDY the result was nd (0 of 3 replicates).

For GFTDDDYAMQ / GISWNSGSIGYADSPK / VGRGGGYFDY, the assay gave nd (0 of 3 replicates). Variant GFTFDVYAMG / KISWNSGSIGYADSVK / VGRGGGYFDY gave 14 µM (1 of 3 replicates). Variant GFTFNDYAMN / GISWNSGSIGYADSVK / VGRGGGYFDY showed nd (0 of 3 replicates). Variant GFTVDDYAMM / GISWPSGSIGYADSVK / VGRGGGYFDY showed 9.4 µM (1 of 3 replicates). Variant GFTFDDYAML / GIHWGSGSIGYADSVK / VGRGGGYFDY showed 82 µM (3 of 3 replicates). Variant GFRFDDYAGS / GISWNSGSIGYADSVK / VGRGGGYFDY gave nd (0 of 3 replicates). Variant GFTFDDQWMC / GISWNSGSIGYADSVK / VGRGGGYFDY gave nd (0 of 3 replicates). Variant GFTFDDYAMK / GISWASGSIGYADSVK / VGRGGGYFDY gave 3.5 µM (1 of 3 replicates). With GRTFDDYAMQ / GISWNSGSIGYADSVK / HGRGGGYFDY the result was nd (0 of 3 replicates).

For GFTFDDYAMM / GISWNSGSISYADSVK / VGRGGGYFDY, the assay gave 97 µM (3 of 3 replicates). Variant GFTFDDYAMI / GISWNSGMIGEADSVK / VGRGGGYFDY gave nd (0 of 3 replicates). For GFTFKDYAME / GISWNSGSIGYADSVK / VNRGGGYFDY, the assay gave nd (0 of 3 replicates). With GFTFDDYNMK / GISWNSGSIGYADSVK / VGDGGGYFDY the result was nd (0 of 3 replicates). Variant GFTFDDYAMA / GISWNSGSIDYADSVK / VGRGGGYFDY gave nd (0 of 3 replicates). Variant GFTFGDYAMN / NISWNSGSIGYADSVK / VGRGGGYFDY gave nd (0 of 3 replicates). With GFTFDDYAMF / GISWNSGSILFADSVK / VGRGGGYFDY the result was nd (0 of 3 replicates). Variant HFTFDDYAMS / GISWNSISIGYADSVK / VGRGGGYFDY showed 110 µM (1 of 3 replicates). Variant GFTFDTYAME / GISWNSGSIGYADKVK / VGRGGGYFDY showed nd (0 of 3 replicates).

Variant GFTFDDYAMG / GISWNSGSIGYADPSK / VGRGGGYFDY showed 16 µM (1 of 3 replicates). Variant GFTFDDYAMQ / GISWNSGSIGYADSVK / VGRGGGYFDY showed 34 µM (2 of 3 replicates). Variant GFTFDDYAMM / GISWNSGSIIYWDSVK / VGRGGGYFDY showed 76 µM (1 of 3 replicates). For GHQFDDYAMV / GISWNSGSIGYADSVK / VGRGGGYFDY, the assay gave 73 µM (1 of 3 replicates). With GFTFWDYAMK / GISWNSGSIGYADSVK / VGRGGGYTDY the result was 41 µM (3 of 3 replicates). Variant GQTFDDYAMI / GRSWNSGSIGYADSVK / VGRGGGYFDY gave 25 µM (1 of 3 replicates). For GFTFDDYAMI / GISLNSGSIGYADSVK / VHRGGGYFDY, the assay gave 74 µM (2 of 3 replicates).

Excerpt, the final 7 entries:

For GFTFDDYAMG / GISWNSGSIGYADPSK / VGRGGGYFDY, the assay gave 16 µM (1 of 3 replicates).
For GFTFDDYAMQ / GISWNSGSIGYADSVK / VGRGGGYFDY, the assay gave 34 µM (2 of 3 replicates).
For GFTFDDYAMM / GISWNSGSIIYWDSVK / VGRGGGYFDY, the assay gave 76 µM (1 of 3 replicates).
For GHQFDDYAMV / GISWNSGSIGYADSVK / VGRGGGYFDY, the assay gave 73 µM (1 of 3 replicates).
For GFTFWDYAMK / GISWNSGSIGYADSVK / VGRGGGYTDY, the assay gave 41 µM (3 of 3 replicates).
For GQTFDDYAMI / GRSWNSGSIGYADSVK / VGRGGGYFDY, the assay gave 25 µM (1 of 3 replicates).
For GFTFDDYAMI / GISLNSGSIGYADSVK / VHRGGGYFDY, the assay gave 74 µM (2 of 3 replicates).

The measurements come from Engelhart et al. 2022 (doi:10.1038/s41597-022-01779-4) through the FLAb antibody collection.